This is an account of results in PubChem BioAssay AID2806 (Sanford-Burnham Center for Chemical Genomics, 2010).

Only a part is listed here, and it is no random draw. The source made the active and inactive calls.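 Rule for the calls: active = inhibition of at least 40% at 10 µM in the primary screen; inactive = the rest.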

The assay relates to intestinal alkaline phosphatase [Mus musculus]. The assay is described as follows: inhibitors of mouse IAP, primary screen, biochemical, luminescence, uHTS (AID 2806).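 Note: plate controls were DMSO with enzyme for no effect and no enzyme wells for full effect.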 As to conditions: purified mouse IAP, CDP-Star luminescence, 30 min; at 10 µM; stronger effect = higher value.
The inhibition is the drop in the measured response relative to a control, in per cent. `Cc1cc(SC(NC(=O)c2ccccc2)C(Cl)(Cl)Cl)nc(C(C)C)n1` (stereo not drawn): the inhibition was inactive: 11.4%.

For `CCCCOc1ccc(C(=O)NCC2(N3CCCCC3)CCCCC2)cc1OC`, the inhibition is inactive: -24.8%.

Consider `CCOC(=O)Nc1ccc([As](=O)(O)O)c(O)c1`, for which the inhibition was inactive: 19.7%.

For `O=P(Nc1ccccn1)(c1cccc2ccccc12)c1cccc2ccccc12`, the inhibition is inactive: 2.2%.

With `Cc1cc(SC(NC=O)C(Cl)(Cl)Cl)ncn1` (stereo not drawn), the inhibition was inactive: -6.7%.

Consider `CCOC(=O)Nc1cccc([As](=O)(O)O)c1`, for which the inhibition was inactive: 10.2%.

As to `O=C(Nc1ccncc1[N+](=O)[O-])c1ccc([N+](=O)[O-])cc1[N+](=O)[O-]`, the inhibition is inactive: 5.3%.

With `O=C(COc1ccccc1)OC1CN2CCC1CC2` (stereo not drawn), the inhibition was inactive: -0.8%.

Consider `COP1(=S)c2c(C)nn(CCC#N)c2N=C(c2ccc(F)cc2)N1C` (stereo not drawn), for which the inhibition is inactive: 5.2%.

As for `CCC(C)N(CC(C)C)C(=S)SC(NC(C)=O)C(Cl)(Cl)Cl` (stereo not drawn), the inhibition is inactive: 5.1%.

Consider `CCOC(=O)c1ccc(NC(=O)C(C)(CCl)SC)cc1` (stereo not drawn), for which the inhibition was inactive: -10%.

For the compound `O=C(OC1CN2CCC1CC2)c1cccc([N+](=O)[O-])c1` (stereo not drawn), the inhibition was inactive: -2.6%.

On to `COc1cc(I)ccc1[As](=O)(O)O`, for which the inhibition was inactive: 4%.

Regarding `COc1ccc2nc(NP(=O)(c3ccccc3)c3ccccc3)sc2c1`, the inhibition is inactive: 7.5%.

Regarding `Cc1cc(=O)[nH]c(N[N+](=O)[O-])n1`, the inhibition was inactive: -7.6%.

With `O=C(OC1CN2CCC1CC2)C12CC3CC(CC(C3)C1)C2` (stereo not drawn), the inhibition is inactive: 4.2%.

With `Cc1c2c(nc3ccccc13)SC(C(Cl)Cl)C2` (stereo not drawn), the inhibition is inactive: 4%.

Consider `COc1ccc(N/C(=N/P(=O)(N2CCOCC2)N2CCOCC2)N2CCOCC2)cc1`, for which the inhibition was inactive: 8.9%.

As for `Cc1ccc2nc3c(c(C)c2c1)CC(C(Cl)Cl)S3` (stereo not drawn), the inhibition was inactive: 5.2%.

Take `Cc1ccc(OP(=O)(Nc2ccc([N+](=O)[O-])cn2)Oc2ccc(C)cc2)cc1`: the inhibition is inactive: -5.4%.

In the case of `COc1cc(C(=O)NCC2(N3CCOCC3)CCCCC2)ccc1OCC(C)C`, the inhibition was inactive: -5.5%.

Take `C[As](=O)(O)c1cccc(C(=O)O)c1`: the inhibition was inactive: 2.2%.

As for `O=[As](O)(c1ccc(O)cc1)c1ccccc1O`, the inhibition was inactive: -1.9%.

As to `O=[N+]([O-])c1cc([N+](=O)[O-])c(-c2ccn[nH]2)s1`, the inhibition is active: 43.4%.

For the compound `CC(C)NC(=O)NP(=O)(Oc1ccccc1)Oc1ccccc1`, the inhibition was inactive: -0.4%.

In the case of `O=C(OC1CN2CCC1CC2)c1cccc2[nH]cnc12` (stereo not drawn), the inhibition was inactive: -0.1%.

`CCN(CC)C(=S)SC(NC=O)C(Cl)(Cl)Cl` (stereo not drawn): the inhibition is inactive: -6.3%.

In the case of `CC(C)c1ccc(OP(=O)(Nc2ccccn2)Oc2ccccc2F)cc1` (stereo not drawn), the inhibition was inactive: 1.5%.

Turning to `ClCCSc1nnc(-c2cccnc2)o1`, the inhibition was inactive: 0.9%.

In the case of `Nc1ccccc1[As](=O)(O)c1ccccc1`, the inhibition is inactive: -4.2%.

On to `O=C(O)COc1ccc([As](=O)(O)O)cc1[N+](=O)[O-]`, for which the inhibition is inactive: -5.6%.

Regarding `CS(=O)(=O)c1cc([N+](=O)[O-])c2no[n+]([O-])c2c1`, the inhibition was inactive: 7%.

Regarding `O=P(Nc1nccs1)(Oc1ccccc1)Oc1ccccc1`, the inhibition is inactive: -2.4%.

For `O=P(Nc1nccs1)(c1ccccc1)c1nc2ccccc2s1` (stereo not drawn), the inhibition was inactive: -5.2%.

Turning to `CCOP1(=S)c2c(C)nn(CCC#N)c2N=C(c2ccccc2F)N1C` (stereo not drawn), the inhibition is inactive: 0.2%.

`CN(C(=O)Cc1ccc(Cl)c(Cl)c1)[C@H]1CC[C@@]2(CCCO2)C[C@@H]1N1CCCC1`: the inhibition was inactive: -2.9%.

As for `O=[N+]([O-])c1ccc2c(c1)nnn2O`, the inhibition is inactive: -4.4%.

Regarding `CN(C)C(=O)c1cc([N+](=O)[O-])cc2c1-c1c(cc([N+](=O)[O-])cc1[N+](=O)[O-])C2=O`, the inhibition is inactive: -5.1%.

As for `CN(C(=O)Cc1ccccc1)[C@@H]1CC[C@]2(CCCO2)C[C@H]1N1CCCC1`, the inhibition was inactive: 4%.

For the compound `CCOP1(=S)c2c(C)nn(CCC#N)c2N=C(c2ccc(F)cc2)N1C` (stereo not drawn), the inhibition is inactive: 11.4%.

For the compound `N#CCCN(C(=O)COC(=O)C(O)(c1ccccc1)c1ccccc1)c1ccc(F)cc1`, the inhibition is inactive: 7.1%.

For the compound `NC(=O)Nc1ccc([As](=O)(O)O)cc1`, the inhibition was inactive: -13.8%.

Turning to `Cc1cccc(OCC(=O)OC2CN3CCC2CC3)c1` (stereo not drawn), the inhibition is inactive: 1.7%.

In the case of `O=[As](O)(c1cccc(O)c1)c1cccc(O)c1`, the inhibition was inactive: 5.8%.

As to `CS(=O)(=O)c1ccc(Cl)c(NC(=O)COC(=O)C(O)(c2ccccc2)c2ccccc2)c1`, the inhibition is inactive: 1.4%.

For the compound `O=[As](O)(O)c1cccnc1`, the inhibition was inactive: 3.3%.

With `COc1cc(C(=O)NCC2(N3CCOCC3)CCCCC2)cc(Cl)c1OC(C)C`, the inhibition was inactive: -7.5%.

With `O=C(OC1CN2CCC1CC2)c1ccc(Cl)cc1` (stereo not drawn), the inhibition is inactive: -4.9%.

For the compound `CCOP(=O)(Nc1cccc2ccccc12)OCC`, the inhibition is inactive: 3.8%.

Take `COc1cc(C2NCCC3(OCCO3)C2(C)C)cc(OC)c1OC` (stereo not drawn): the inhibition is inactive: 1.6%.

Consider `CCCOP(=S)(Nc1nc(N)cc(=O)[nH]1)OCCC`, for which the inhibition is inactive: -0.3%.

Take `Cc1ccc(NCCc2c([N+](=O)[O-])cc([N+](=O)[O-])cc2[N+](=O)[O-])cc1`: the inhibition was inactive: 15.3%.

For the compound `CC(C)(C)C(=O)NC(Sc1ncccn1)C(Cl)(Cl)Cl` (stereo not drawn), the inhibition is inactive: -0.4%.

Consider `Clc1n[nH]nc1-c1nn[nH][15n]1`, for which the inhibition was inactive: 0.5%.

As to `CCOP(=O)(Nc1ccc(C)cn1)OCC`, the inhibition was inactive: -13.2%.

For the compound `CN(CCCl)Cc1cc(Cl)c(NC2=NCCN2)c(Cl)c1`, the inhibition is inactive: 2.3%.

On to `CCOP(=O)(NC(=NC(C)c1ccccc1)NC(C)c1ccccc1)OCC` (stereo not drawn), for which the inhibition is inactive: -3.7%.

In the case of `O=P1(Nc2ccccn2)COc2ccccc2OC1`, the inhibition is inactive: -4.1%.

On to `CCC1=CC2Cc3nc4ccc(Cl)cc4c(N)c3C(C1)C2` (stereo not drawn), for which the inhibition was inactive: -5.4%.

As for `CC1(CBr)Cn2c(nc3ccccc3c2=O)S1` (stereo not drawn), the inhibition is inactive: -6.4%.

As to `O=[As](O)(c1ccccc1Br)c1ccccc1Br`, the inhibition was inactive: -3.3%.

For the compound `CC(C)/C=N\N=C(\N)N[N+](=O)[O-]`, the inhibition is inactive: -9.5%.

For the compound `CN(C(=O)Cc1ccc(Cl)c(Cl)c1)[C@@H]1CCCC[C@H]1N1CCCC1`, the inhibition is inactive: -1.5%.

For the compound `COc1ccccc1CNC(=O)COC(=O)C(O)(c1ccccc1)c1ccccc1`, the inhibition is inactive: 3.5%.

As for `O=C(/C=C/c1ccccc1)OC1CN2CCC1CC2` (stereo not drawn), the inhibition is inactive: -7.2%.

Consider `CN(C)C1(CNC(=O)c2ccc(S(C)(=O)=O)cc2)CCCCC1`, for which the inhibition was inactive: -5.3%.

Consider `CC1CCC(C(C)C)C(OP(=O)(Nc2ccccn2)c2ccccc2)C1` (stereo not drawn), for which the inhibition was inactive: 10.2%.

Consider `Cc1ccc(C(=O)OC2CN3CCC2CC3)cc1` (stereo not drawn), for which the inhibition was inactive: 2.5%.

Turning to `Cc1nn(-c2ccccc2)c2c1P(=O)(N1CCOCC1)N(C)C(c1ccccc1)=N2` (stereo not drawn), the inhibition is inactive: 3.5%.

As for `O=[As](O)(c1cccs1)c1cccs1`, the inhibition was inactive: 5.3%.

Regarding `Cc1ccc(OCC(=O)OC2CN3CCC2CC3)cc1` (stereo not drawn), the inhibition is inactive: 7.1%.

As to `O=P1(Nc2ccc(Br)cn2)COc2ccccc2OC1`, the inhibition was inactive: 4.2%.

For the compound `NS(=O)(=O)c1cccc(NC(=O)COC(=O)C(O)(c2ccccc2)c2ccccc2)c1`, the inhibition is inactive: 19.9%.

For the compound `Nc1cccc([As](=O)(O)c2ccccc2)c1`, the inhibition is inactive: -3.4%.

Turning to `O=P1(Nc2ncccn2)COc2ccccc2OC1`, the inhibition was inactive: 3.7%.

For `C[C@H]1OP(=O)(Oc2ccccc2)[C@H](O)[C@H](O)[C@H]1N=[N+]=[N-]` (stereo partly drawn), the inhibition is inactive: -11.6%.

As to `O=P(Nc1nc2ccccc2s1)(c1ccccc1)c1ccccc1`, the inhibition was inactive: 1.8%.

Consider `O=P(Nc1ccccn1)(c1ccc(Br)cc1)c1ccc(Br)cc1`, for which the inhibition is inactive: -5.7%.

Regarding `CN(C)C1(CNC(=O)c2ccc(Cl)c(S(N)(=O)=O)c2)CCCCC1`, the inhibition was inactive: -5.5%.

Turning to `C(Cc1nn[nH]n1)Cc1nn[nH]n1`, the inhibition was inactive: 11.2%.

Turning to `Nc1ccc([As](=O)(O)c2ccc([N+](=O)[O-])cc2)cc1`, the inhibition was inactive: 8.8%.

As for `O=C(OC1CN2CCC1CC2)c1cccc(Cl)c1` (stereo not drawn), the inhibition was inactive: -4.4%.

For the compound `O=[N+]([O-])c1ncn(CCn2cnc([N+](=O)[O-])n2)n1`, the inhibition is inactive: 0.3%.

For the compound `O=[As](O)(c1ccccc1)c1ccc(O)cc1`, the inhibition was inactive: -8.7%.

On to `c1nnnn1CCn1cnnn1`, for which the inhibition is inactive: -8.2%.

With `CC(C)C(=O)NC(Sc1ccccc1)C(Cl)(Cl)Cl` (stereo not drawn), the inhibition was inactive: -6.6%.

Consider `O=P(Nc1nccs1)(c1ccccc1)c1ccccc1`, for which the inhibition is inactive: 4.8%.

Turning to `CC(C)(C)C(=O)NC(Sc1ccccc1)C(Cl)(Cl)Cl` (stereo not drawn), the inhibition was inactive: 3.9%.

As to `CCOc1ccc(C2=NCC(CBr)S2)cc1` (stereo not drawn), the inhibition is inactive: 10.9%.

Consider `O=P1(Nc2nc3ccc(Cl)cc3s2)COc2ccccc2O1` (stereo not drawn), for which the inhibition is inactive: -1.4%.

Turning to `CC(=O)Nc1ccc(Oc2c([N+](=O)[O-])cc([N+](=O)[O-])cc2[N+](=O)[O-])cc1`, the inhibition was inactive: -10.4%.

`CC(=O)Nc1ccc([As](=O)(O)O)c(O)c1`: the inhibition is inactive: 8.8%.

On to `CC(=O)c1ccc(N2CC2c2ccncc2)cc1` (stereo not drawn), for which the inhibition was inactive: 4.2%.

Take `C[C@H]1OP(=O)(Oc2ccccc2)C[C@@H]2O[C@@H]21` (stereo partly drawn): the inhibition was inactive: -3.6%.

Regarding `C[C@@H]1C=CCP(=O)(Oc2ccccc2)O1` (stereo partly drawn), the inhibition was inactive: 5.7%.

Take `Cc1ccccc1CN(C)C(=O)COC(=O)C(O)(c1ccccc1)c1ccccc1`: the inhibition is inactive: 6.1%.

On to `CCNC(=S)/N=C(\N)N[N+](=O)[O-]`, for which the inhibition is inactive: 10.3%.

`O=C(NC1CCS(=O)(=O)C1)NP(=S)(Oc1ccccc1)Oc1ccccc1` (stereo not drawn): the inhibition was inactive: -3.4%.

For the compound `CCOC(=O)NC(Sc1ccccc1)C(Cl)(Cl)Cl` (stereo not drawn), the inhibition is inactive: 7.9%.

`Cc1ccc(NP(=O)(Oc2cccc(C)c2)Oc2cccc(C)c2)nc1`: the inhibition is inactive: -13.4%.

As for `c1ccc(-c2nn[nH]n2)c(-c2nn[nH]n2)c1`, the inhibition is inactive: 5.3%.

Turning to `CN(C)C(=O)Oc1noc2ccccc12`, the inhibition is inactive: 1.8%.

Regarding `CC(NC(=O)COC(=O)C(O)(c1ccccc1)c1ccccc1)c1ccccc1` (stereo not drawn), the inhibition was inactive: -8%.
